Source: US7504035B2, “Treatment of putrescrible cakes” (United Utilities PLC, priority 2005, dated 2009)
Some compounds may have been tested in ways that are not shown here.

Experiments:
[1] = test system: E. coli; assay: E. coli content of raw sewage sludge cake (24.81% solids) treated with ammonium nitrate; conditions: 1.5% ammonium nitrate w/w
[2] = test system: E. coli; assay: E. coli reduction in milled sewage screenings (54.1% solids); conditions: 3% ammonium nitrate w/w, kept in skip 1 week
[3] = pH of treated cake; conditions: raw sludge cake, 1.5% ammonium nitrate w/w

Substance ammonium nitrate has an E. coli content ([1]; day 0) of 1.41E+06 cfu/g dry weight, an E. coli content ([1]; day 1) of 3.21E+05 cfu/g dry weight and an E. coli content ([1]; day 8) of 6.77E+03 cfu/g dry weight. For the same substance, the E. coli content ([1]; day 22) was 5.12E+03 cfu/g dry weight, the “E. coli content reduced by a factor” value [2] was 275 and the PH ([3]; day 0) was 5.9. For the same substance, the PH ([3]; day 1) was 6.1, the PH ([3]; day 8) was 6.2 and the PH ([3]; day 22) was 6.9.
